For the experiment, the target named is Mu-type opioid receptor (Homo sapiens, UniProt P35372). In words: Displacement of [3H]DAMGO from human mu opioid receptor expressed in CHO cell membranes incubated for 60 mins by liquid scintillation counting. (Displacement assays read how much labelled ligand stays bound in the presence of the test substance.)

Sequences of proteins named here, by UniProt entry; tags and fusion partners are left off.
UniProt P35372, whole entry, looked up: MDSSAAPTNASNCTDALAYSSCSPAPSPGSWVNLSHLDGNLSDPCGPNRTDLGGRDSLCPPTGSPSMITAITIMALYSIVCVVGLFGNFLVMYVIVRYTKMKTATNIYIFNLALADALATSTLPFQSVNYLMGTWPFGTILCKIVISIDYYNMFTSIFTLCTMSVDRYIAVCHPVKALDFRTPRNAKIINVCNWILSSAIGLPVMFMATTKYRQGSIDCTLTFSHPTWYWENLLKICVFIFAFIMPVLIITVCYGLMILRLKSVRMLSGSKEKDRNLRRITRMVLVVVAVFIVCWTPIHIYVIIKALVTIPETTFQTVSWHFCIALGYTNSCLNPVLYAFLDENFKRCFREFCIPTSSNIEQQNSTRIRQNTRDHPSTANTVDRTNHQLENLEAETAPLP

As a reminder, the Ki is the dissociation constant of the complex between target and ligand, obtained from inhibition or displacement. The low end stands for tighter binding, the high end for weaker binding.

For `CN(C(=O)Cc1ccc(Cl)c(Cl)c1)C1CCCCC1N1CCCC1` (stereo unspecified), the affinity, expressed as Ki, was 290 nM.

The values above are taken from ChEMBL document CHEMBL2177058 (J Med Chem, 2012).
